The values below come from article PMC2639705, “Two Chromogranin A-Derived Peptides Induce Calcium Entry in Human Neutrophils by Calmodulin-Regulated Calcium Independent Phospholipase A2” (PLoS ONE, 2009).

One experiment relates to PMNs. The experiment in a line: Time-lapse intracellular Ca2+ imaging (Fura-2), with SOC/ARC blockers and iPLA2/PLA2 inhibitors. It counts as cell-based, human.
In experiment [1] the test system is nicotinic acetylcholine receptor. The settings on record: compared with CAT; ref [70]; cited from earlier work.

Consider bromophenacyl bromide, for which the “inhibition of CAT-induced Ca2+ entry” value in the experiment on PMNs (Fura-2, 20 µM CAT, 2.5 mM CaCl2, 100 µM 2-APB (2 min), 25 µM BEL (30 min) or 10 µM BPB (10 min) before peptide) is on record as “abolished the transient Ca^2+ influx”. Also, the “inhibition of CHR-induced Ca2+ entry” value with PMNs (Fura-2, 20 µM CHR, 2.5 mM CaCl2, 100 µM 2-APB (2 min), 25 µM BEL (30 min) or 10 µM BPB (10 min) before peptide) was “abolished the transient Ca^2+ influx”. Also, in the experiment with PMNs (Fura-2, 37°C, 1 µM CMZ, 25 µM BEL (30 min), 10 µM BPB (10 min) or 100 µM 2-APB (2 min) before), the “suppression of CMZ-induced Ca2+ influx” value is reported as “significantly suppressed”. Besides, the “suppression of W7-induced Ca2+ influx” value with PMNs (Fura-2, 37°C, 30 µM W7, 25 µM BEL (30 min), 10 µM BPB (10 min) or 100 µM 2-APB (2 min) before) is reported as “significantly suppressed”.
As to substance P, in experiment [1], the “inhibition of nicotinic cholinergic-stimulated catecholamine release” value is on record as “may inhibit nicotinic cholinergic-stimulated catecholamine release, but displays a lower potency”.
